This note sets out measurements from patent US8518980B2, “Treatment of Duchenne muscular dystrophy” (Summit Corporation PLC, priority 2006, dated 2013).

The test system of the test is Utrophin A promoter linked to a luciferase reporter gene (H2K/mdx/Utro A reporter cell line). The experiment in a line: Luciferase reporter assay (murine H2K cells). Particulars: Table 1; luciferase level relative to control; final concentration of 10 μM. Background: Reporter assays use an easily measured gene product as a stand-in for the process of interest.

Take `CCP(=O)(OC)c1ccc2oc(-c3ccc(Cl)cc3)nc2c1` (stereo not shown) [Example 455, Methyl 2-(4-chlorophenyl)benzo[d]oxazol-5-yl(ethyl)phosphinate]: the Activity result is “++++ (Above 401% relative to control)”.
